Experimental data taken from patent US5227488A, “Aza spiro decane and use thereof in treating CNS disorders” (Novo Nordisk A/S, priority 1989, dated 1993).

Amino acid sequences for entries named in this document (tags omitted).
UniProt P28564, whole entry: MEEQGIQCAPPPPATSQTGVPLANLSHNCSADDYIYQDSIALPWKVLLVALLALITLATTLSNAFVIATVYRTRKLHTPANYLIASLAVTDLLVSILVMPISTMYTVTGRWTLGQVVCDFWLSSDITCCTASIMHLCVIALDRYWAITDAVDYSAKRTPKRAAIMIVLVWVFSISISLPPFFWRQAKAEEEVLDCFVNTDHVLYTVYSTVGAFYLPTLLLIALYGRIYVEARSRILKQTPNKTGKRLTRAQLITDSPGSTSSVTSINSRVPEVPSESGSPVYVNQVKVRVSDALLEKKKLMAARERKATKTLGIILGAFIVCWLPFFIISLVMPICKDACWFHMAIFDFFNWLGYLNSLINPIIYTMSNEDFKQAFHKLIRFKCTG
UniProt P19327, whole entry: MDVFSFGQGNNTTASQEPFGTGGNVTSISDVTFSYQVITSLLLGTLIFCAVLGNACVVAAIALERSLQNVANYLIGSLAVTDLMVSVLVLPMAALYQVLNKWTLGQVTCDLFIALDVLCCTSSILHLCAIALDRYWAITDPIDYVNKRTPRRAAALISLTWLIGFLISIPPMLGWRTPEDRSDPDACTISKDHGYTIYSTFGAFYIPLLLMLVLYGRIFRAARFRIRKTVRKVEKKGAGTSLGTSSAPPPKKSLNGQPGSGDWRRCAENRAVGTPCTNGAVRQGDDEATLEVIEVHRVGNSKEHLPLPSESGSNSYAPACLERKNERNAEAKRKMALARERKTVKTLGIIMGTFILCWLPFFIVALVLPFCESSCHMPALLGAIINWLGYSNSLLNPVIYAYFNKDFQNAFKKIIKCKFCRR

Key:
5-HT1B = molecular target: T1, 5-HT1B (Rattus norvegicus, UniProt P28564); experiment: Receptor binding in vitro, 5-HT1B (3H-5-HT displacement, with 50 nM 8-OH-DPAT)
T1 construct: from tissue; host or cells: rat brain: frontal cortex, hippocampus
Procedure: (§1) Compounds of the general formula (I) were tested for binding to 5-HT receptors and compared with known ligands by the following procedure:
(§2) Rat brain tissue (as specified in the table hereinafter) was homogenized using a Polytron homogenizer. The final pellet was resuspended in 125 vol (tissue wet weight) of buffer.
(§3) In all assays incubation was carried out for 10 min at 37° C.
Labelling of the 5-HT1B receptor was complicated by the fact that the available ligand ^3 H-5-HT is nonselective.
(§4) Detailed conditions for the receptor binding assay in vitro are tabulated below.

5-HT1A = molecular target: T2, 5-HT1A (Rattus norvegicus, UniProt P19327); experiment: Receptor binding in vitro, 5-HT1A (3H-8OH-DPAT displacement)
T2 construct: from tissue; host or cells: rat brain: frontal cortex, hippocampus
Procedure: as §1, §2, §3, §4

SMILES	IC50 (5-HT1B) [nM]	IC50 (5-HT1A) [nM]
CCCN(CCC)C1CCc2cccc(O)c2C1 (centres unmarked) [Example 8-OH-DPAT, 8-hydroxy-2-(di-n-propylamino)tetralin, reference compound]	1100	–
CC1(C)CC(=O)N(CCCCN2CCN(c3ncccn3)CC2)C(=O)C1 [gepirone, reference compound]	–	248
